Experimental data taken from patent publication EP4011367A1, “COMPOUNDS FOR USE IN THE TREATMENT OF COVID-19” (priority 2020, dated 2022).

Molecular target: T1, SARS-CoV-2 3CL-Pro (Severe acute respiratory syndrome coronavirus 2, UniProt P0DTD1)
T1 construct: SARS-CoV-2 main protease (3CL-Pro), also termed M-Pro
Assay: biochemical
Conditions: for inhibition at 20 µM: read-out: 3CL-Pro Inhibition [%] Primary Screen (20 µM)

## S=C(S)N1CCCC1 [compound 35, N-pyrrolidin-1-ylcarbamodithioate]
  inhibition at 20 µM: 101%

## Cc1ccc(-n2sc(=O)n(Cc3ccc(F)cc3)c2=O)cc1 [compound 53, 4-(4-Fluorobenzyl)-2-(4-methylphenyl)-1,2,4-thiadiazolidine-3,5-dione]
  inhibition at 20 µM: 101%

## Cc1c(-c2cnccn2)ssc1=S [compound 59, 4-Methyl-5-(2-pyrazinyl)-3H-1,2-dithiole-3-thione]
  inhibition at 20 µM: 101%

## O=C(O)c1ccccc1-c1c2cc(Br)c(=O)cc-2oc2[c]([Hg][OH])c(O)c(Br)cc12 [compound 62, [2,7-dibromo-9-(2-carboxyphenyl)-3-hydroxy-6-oxoxanthen-4-yl]mercury;hydrate]
  3CL-Pro Inhibition [%] Primary Screen (20 µM): 101%
